The entries are a selection whose mix differs from that of the whole data set. Inconclusive results are not listed. Calls of active or inactive are those of the source. Rule for the calls, unless noted: active = hit-call score of the fitted dose curve at least 0.9, where 1 is the maximum; inactive = score below 0.9.
Legend:
[1] = ATG_XTT_Cytotoxicity: Cytotoxicity Assessment in the Attagene TRANS-FACTORIAL HepG2 Assay (AID 2283584; active = hit-call score of the fitted dose curve at least 0.9, where 1 is the maximum)
Procedure, shortened: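 Cells: human HepG2, transiently transfected with MRTU reporter constructs. Exposure 24 h. Readout: XTT, cell number. Baseline/neg ctrl DMSO; loss-of-signal scored.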

Sequences of proteins named here, by UniProt entry; tags and fusion partners are left off.
UniProt Q16236, whole entry: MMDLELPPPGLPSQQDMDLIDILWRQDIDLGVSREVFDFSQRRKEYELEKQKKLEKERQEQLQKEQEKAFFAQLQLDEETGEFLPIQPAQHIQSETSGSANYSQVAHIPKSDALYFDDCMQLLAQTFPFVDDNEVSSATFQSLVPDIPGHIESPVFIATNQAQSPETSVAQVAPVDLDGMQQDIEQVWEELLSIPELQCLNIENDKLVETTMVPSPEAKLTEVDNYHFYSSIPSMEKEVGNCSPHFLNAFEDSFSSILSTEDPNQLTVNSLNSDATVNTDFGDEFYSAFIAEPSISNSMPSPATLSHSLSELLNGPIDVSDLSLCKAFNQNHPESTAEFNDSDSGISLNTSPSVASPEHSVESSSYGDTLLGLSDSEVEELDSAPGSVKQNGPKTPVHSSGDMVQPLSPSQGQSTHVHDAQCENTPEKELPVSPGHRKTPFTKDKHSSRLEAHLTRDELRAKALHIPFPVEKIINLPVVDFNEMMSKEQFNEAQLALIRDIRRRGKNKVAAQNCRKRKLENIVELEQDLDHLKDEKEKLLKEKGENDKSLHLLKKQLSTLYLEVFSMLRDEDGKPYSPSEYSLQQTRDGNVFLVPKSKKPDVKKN
UniProt P40763, whole entry: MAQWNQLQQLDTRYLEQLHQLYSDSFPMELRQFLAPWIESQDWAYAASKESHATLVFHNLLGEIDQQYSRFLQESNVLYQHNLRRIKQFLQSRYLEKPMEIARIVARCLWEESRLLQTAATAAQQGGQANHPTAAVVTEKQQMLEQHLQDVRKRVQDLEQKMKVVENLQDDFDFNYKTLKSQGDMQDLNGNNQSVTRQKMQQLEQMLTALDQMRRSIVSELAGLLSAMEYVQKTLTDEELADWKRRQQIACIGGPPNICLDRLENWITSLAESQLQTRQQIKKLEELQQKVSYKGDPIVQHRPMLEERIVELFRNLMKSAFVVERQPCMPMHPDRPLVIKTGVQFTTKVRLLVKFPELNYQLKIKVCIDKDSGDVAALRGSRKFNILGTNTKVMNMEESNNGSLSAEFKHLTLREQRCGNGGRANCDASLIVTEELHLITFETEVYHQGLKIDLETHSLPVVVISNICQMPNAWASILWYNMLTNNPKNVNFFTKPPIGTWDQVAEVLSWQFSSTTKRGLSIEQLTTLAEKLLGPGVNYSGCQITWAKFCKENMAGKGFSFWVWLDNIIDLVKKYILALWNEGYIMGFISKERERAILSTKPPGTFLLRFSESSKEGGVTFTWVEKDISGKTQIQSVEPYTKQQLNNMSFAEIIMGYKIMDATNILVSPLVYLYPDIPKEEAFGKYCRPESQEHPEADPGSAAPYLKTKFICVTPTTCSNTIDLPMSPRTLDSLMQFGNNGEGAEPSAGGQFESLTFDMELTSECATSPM
UniProt P04637, whole entry: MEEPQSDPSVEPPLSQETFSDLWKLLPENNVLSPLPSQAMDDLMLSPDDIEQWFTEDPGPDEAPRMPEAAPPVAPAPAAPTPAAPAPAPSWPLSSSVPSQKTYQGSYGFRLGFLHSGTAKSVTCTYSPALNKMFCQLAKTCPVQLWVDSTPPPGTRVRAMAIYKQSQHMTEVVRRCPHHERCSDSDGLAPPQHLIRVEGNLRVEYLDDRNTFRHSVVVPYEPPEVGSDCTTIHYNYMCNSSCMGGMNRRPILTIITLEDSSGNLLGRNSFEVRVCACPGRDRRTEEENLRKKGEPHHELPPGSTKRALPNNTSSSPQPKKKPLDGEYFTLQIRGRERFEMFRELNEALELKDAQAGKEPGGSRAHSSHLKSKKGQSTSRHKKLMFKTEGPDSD

[2] = read-out: NAD(P)H dehydrogenase [quinone] 1 (NQO1), NQO1 (gene 1728); assay: LTEA_HepaRG_NQO1: Life Technologies and Expression Analysis (LTEA) Assay for NAD(P)H dehydrogenase [quinone] 1 (NQO1) using HepaRG (AID 2283526); settings: actives raise or lower the signal; mRNA level, 48 h
Procedure, shortened: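 HepaRG, 48 h post-plating → serum-free induction medium → test chemical 48 h (duplicate, 100 uM top, half-log x8, 0.5% DMSO) → RNA isolation → qRT-PCR, ACTB/GAPDH/POLR2A normalization; bidirectional curve fit vs DMSO baseline.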

[3] = read-out: Nuclear factor erythroid 2-related factor 2 (Homo sapiens) (UniProt Q16236); assay: LTEA_HepaRG_NFE2L2: Life Technologies and Expression Analysis (LTEA) Assay for Nuclear factor erythroid 2-related factor 2 (NFE2L2) Transcription Factor using HepaRG (AID 2283527); settings: actives raise or lower the signal; mRNA level, 48 h;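 note: TaqMan qRT-PCR transcript level normalised to ACTB GAPDH and POLR2A housekeeping genes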
Procedure, shortened: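 Differentiated human HepaRG cells in serum-free induction medium were exposed for 48 h to eight concentrations (top 100 uM, half-log dilutions, 0.5% DMSO), in duplicate. NFE2L2 mRNA was quantified by TaqMan qRT-PCR, normalized to ACTB, GAPDH and POLR2A, with bidirectional fitting versus DMSO.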

[4] = read-out: succinate dehydrogenase complex iron sulfur subunit B (SDHB), SDHB (gene 6390); assay: LTEA_HepaRG_SDHB: Life Technologies and Expression Analysis (LTEA) Assay for succinate dehydrogenase complex iron sulfur subunit B (SDHB) using HepaRG (AID 2283528); settings: actives raise or lower the signal; mRNA level, 48 h
Procedure, shortened: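 HepaRG, 48 h exposure, 8-pt half-log series from 100 uM in 0.5% DMSO, duplicates. Readout: SDHB mRNA by Fluidigm qRT-PCR vs housekeeping genes; bidirectional fit relative to DMSO.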

[5] = read-out: Signal transducer and activator of transcription 3 (Homo sapiens) (UniProt P40763); assay: LTEA_HepaRG_STAT3: Life Technologies and Expression Analysis (LTEA) Assay for Signal transducer and activator of transcription (STAT3) using HepaRG (AID 2283529); settings: actives raise or lower the signal; mRNA level, 48 h
Procedure, shortened: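 Differentiated human HepaRG cells in serum-free induction medium were exposed in duplicate for 48 h to eight half-log concentrations up to 100 uM in 0.5% DMSO. STAT3 mRNA was quantified by TaqMan qRT-PCR, normalized to ACTB, GAPDH and POLR2A, and fitted bidirectionally against DMSO.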

[6] = read-out: solute carrier (SLCO1B1), SLCO1B1 (gene 10599); assay: LTEA_HepaRG_SLCO1B1: Life Technologies and Expression Analysis (LTEA) Assay for solute carrier (SLCO1B1) using HepaRG (AID 2283530); settings: actives raise or lower the signal; mRNA level, 48 h
Procedure, shortened: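 HepaRG, serum-free induction medium, 48 h dosing, 8-pt half-log from 100 uM, 0.5% DMSO vehicle, duplicates. Readout: SLCO1B1 mRNA, qRT-PCR, ACTB/GAPDH/POLR2A normalization; up or down fit vs DMSO.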

[7] = read-out: sulfotransferase 2A1 (SULT2A1), SULT2A1 (gene 6822); assay: LTEA_HepaRG_SULT2A1: Life Technologies and Expression Analysis (LTEA) Assay for sulfotransferase 2A1 (SULT2A1) using HepaRG (AID 2283531); settings: actives raise or lower the signal; mRNA level, 48 h
Procedure, shortened: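 Transcript levels of SULT2A1, quantified by qRT-PCR and normalized to three housekeeping genes, serve as the readout. Human HepaRG cultures receive test chemicals for 48 h at up to 100 uM in half-log steps, with 0.5% DMSO vehicle.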

[8] = read-out: Transforming Growth Factor (TGFA), TGFA (gene 7039); assay: LTEA_HepaRG_TGFA: Life Technologies and Expression Analysis (LTEA) Assay for Transforming Growth Factor (TGFA) using HepaRG (AID 2283532); settings: actives raise or lower the signal; mRNA level, 48 h
Procedure, shortened: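 Differentiated human HepaRG cells, plated 48 h then switched to serum-free induction medium, were exposed in duplicate for 48 h to 8-point half-log series from 100 uM in 0.5% DMSO. TGFA mRNA measured by qRT-PCR, normalized to ACTB/GAPDH/POLR2A, bidirectional fit versus DMSO.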

[9] = read-out: Transforming Growth Factor (TGFB1), TGFB1 (gene 7040); assay: LTEA_HepaRG_TGFB1: Life Technologies and Expression Analysis (LTEA) Assay for Transforming Growth Factor (TGFB1) Transporter using HepaRG (AID 2283533); settings: actives raise or lower the signal; mRNA level, 48 h
Procedure, shortened: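 HepaRG, 48 h post-plating, switched to serum-free induction medium; chemicals 100 uM top, half-log, 8 pts, 0.5% DMSO, dup; 48 h exposure; RNA → Fluidigm TaqMan qRT-PCR; norm ACTB/GAPDH/POLR2A; bidirectional fit vs DMSO.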

[10] = read-out: TIMP1, TIMP1 (gene 7076); assay: LTEA_HepaRG_TIMP1: Life Technologies and Expression Analysis (LTEA) Assay for TIMP1 using HepaRG (AID 2283534); settings: actives raise or lower the signal; mRNA level, 48 h;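 note: TaqMan qRT-PCR signal normalized to ACTB GAPDH and POLR2A housekeeping genes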
Procedure, shortened: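 Readout is TIMP1 mRNA level measured by qRT-PCR and normalized to three housekeeping genes. Human HepaRG cells were treated for 48 h in duplicate at eight concentrations up to 100 uM (0.5% DMSO); gain or loss fitted against DMSO.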

[11] = read-out: Tumor necrosis factor receptor 1 (TNFRSF1A), TNFRSF1A (gene 7132); assay: LTEA_HepaRG_TNFRSF1A: Life Technologies and Expression Analysis (LTEA) Assay for Tumor necrosis factor receptor 1 (TNFRSF1A) using HepaRG (AID 2283535); settings: actives raise or lower the signal; mRNA level, 48 h
Procedure, shortened: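 Read-out is TNFRSF1A transcript level by TaqMan qRT-PCR, normalized to three housekeeping genes, scored as gain or loss of signal versus 0.5% DMSO. Human HepaRG cells received test chemicals for 48 h at up to 100 uM (half-log series).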

[12] = read-out: Thyroid Hormone Responsive (THRSP), THRSP (gene 7069); assay: LTEA_HepaRG_THRSP: Life Technologies and Expression Analysis (LTEA) Assay for Thyroid Hormone Responsive (THRSP) using HepaRG (AID 2283536); settings: actives raise or lower the signal; mRNA level, 48 h
Procedure, shortened: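 Differentiated human HepaRG cells were exposed in duplicate for 48 h in serum-free induction medium to eight concentrations (top 100 uM, half-log steps, 0.5% DMSO). Expression was quantified by TaqMan qRT-PCR, normalized to ACTB, GAPDH and POLR2A, with bidirectional fitting against DMSO.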

[13] = read-out: UDP glucuronosyltransferase (UGT1A1), UGT1A1 (gene 54658); assay: LTEA_HepaRG_UGT1A1: Life Technologies and Expression Analysis (LTEA) Assay for UDP glucuronosyltransferase (UGT1A1) using HepaRG (AID 2283538); settings: actives raise or lower the signal; mRNA level, 48 h
Procedure, shortened: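 Readout is UGT1A1 transcript level by qRT-PCR, normalized to three housekeeping genes, after 48 h chemical treatment of HepaRG cells. Concentrations ran from 100 uM down in half-log steps with 0.5% DMSO, and gain or loss relative to DMSO was fitted.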

[14] = read-out: UDP glucuronosyltransferase (UGT1A6), UGT1A6 (gene 54578); assay: LTEA_HepaRG_UGT1A6: Life Technologies and Expression Analysis (LTEA) Assay for UDP glucuronosyltransferase (UGT1A6) using HepaRG (AID 2283539); settings: actives raise or lower the signal; mRNA level, 48 h
Procedure, shortened: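 HepaRG, 48 h post-plating switch to serum-free induction medium; chemical 48 h, 100 uM top, half-log x8, duplicate, 0.5% DMSO. Phenobarbital 1mM induction control. UGT1A6 mRNA by TaqMan qRT-PCR; gain/loss fit vs DMSO.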

[15] = read-out: X-box binding protein 1 (XBP1), XBP1 (gene 7494); assay: LTEA_HepaRG_XBP1: Life Technologies and Expression Analysis (LTEA) Assay for X-box binding protein 1 (XBP1) using HepaRG (AID 2283540); settings: actives raise or lower the signal; mRNA level, 48 h
Procedure, shortened: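 Transcript levels of XBP1, measured by qRT-PCR and normalised to three housekeeping genes, were fitted bidirectionally relative to 0.5% DMSO controls. Human HepaRG cells received eight-point half-log dilutions from 100 uM for 48 h.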

[16] = LTEA_HepaRG_LDH_cytotoxicity: Cytotoxicity Assessment in the Life Technologies and Expression Analysis (LTEA) Assay (AID 2283563; active = hit-call score of the fitted dose curve at least 0.9, where 1 is the maximum)
Procedure, shortened: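 Cells were thawed and plated for 48 h. Medium was then replaced with serum-free induction medium. Chemicals (8 half-log points, maximum 100 uM, 0.5% DMSO) were added in duplicate for 48 h, after which spent medium was assayed for LDH.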

[17] = Tanguay_ZF_120hpf_MORT_legacy: (Legacy) Oregon State University Tanguay Lab 120 Hour Post-fertilization zebrafish Assay for Mortality (AID 2283633; active = hit-call score of the fitted dose curve at least 0.9, where 1 is the maximum)
Procedure, shortened: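 5D WT zebrafish, chorion removed 4 hpf; 1 embryo/well from 6 hpf; static exposure to 120 hpf, 28C, dark, sealed. Final DMSO 0.64%. Readout: binary mortality, brightfield, 24 + 120 hpf; DMSO as negative control.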

[18] = Tanguay_ZF_120hpf_YSE_legacy: (Legacy) Oregon State University Tanguay Lab 120 Hour Post-fertilization zebrafish Assay for Yolk Sac Edema (AID 2283634; active = hit-call score of the fitted dose curve at least 0.9, where 1 is the maximum)
Procedure, shortened: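 Dechorionate (pronase, 4 hpf) → place one 6 hpf embryo per well → static compound exposure, sealed and foil-covered, 28C, to 120 hpf → record yolk sac edema as present or absent. Final DMSO 0.64%.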

[19] = Tanguay_ZF_120hpf_AXIS_legacy: (Legacy) Oregon State University Tanguay Lab 120 Hour Post-fertilization zebrafish Assay for Body Axis Malformation (AID 2283635; active = hit-call score of the fitted dose curve at least 0.9, where 1 is the maximum)
Procedure, shortened: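 Chorion is removed with pronase at 4 hpf, then single 6 hpf embryos are dosed (final DMSO 0.64%) and held statically at 28C in sealed, foil-covered plates. At 120 hpf body axis malformation is recorded as present or absent.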

[20] = read-out: Cellular tumor antigen p53 (Homo sapiens) (UniProt P04637); assay: LTEA_HepaRG_TP53: Life Technologies and Expression Analysis (LTEA) Assay for Tumor Protein P53 (TP53) using HepaRG (AID 2283537); settings: actives raise or lower the signal; mRNA level, 48 h
Procedure, shortened: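 HepaRG, 48 h exposure, top 100 uM, half-log 8-point, 0.5% DMSO vehicle, duplicates. Read: TP53 mRNA by TaqMan qRT-PCR, normalised to ACTB/GAPDH/POLR2A; bidirectional fit vs DMSO.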

Measured: outcome

COP(C)(=O)OC
inactive: [1]

COc1ccc([N+](=O)[O-])cc1[N+](=O)[O-]
inactive: [1]

Cc1c([N+](=O)[O-])cccc1[N+](=O)[O-]
not listed: [20]
inactive: all other assays above

CN(C)CCCl
inactive: [1]

O=[N+]([O-])c1cccc([N+](=O)[O-])c1
not listed: [1] | [17]
inactive: all other assays above

O=[N+]([O-])OCC(CO[N+](=O)[O-])(CO[N+](=O)[O-])CO[N+](=O)[O-]
inactive: [1]

Cc1ccc([N+](=O)[O-])c([N+](=O)[O-])c1
inactive: [1]

Reference: PubChem BioAssay (EPA / NIEHS)
